Source: patent US4695545A, “Culture and process for producing A41030 antibiotics” (Eli Lilly and Company, priority 1984, dated 1987)

Conditions: mice

A41030 factor B
LD50: > 300 mg/kg
acute toxicity: > 300 mg/kg

A41030 factor C
LD50: > 300 mg/kg
acute toxicity: > 300 mg/kg
